biological target: Platelet-derived growth factor receptor beta (Homo sapiens, UniProt P09619); test: ChEBML_158518

Chains of the proteins cited; added tags and fusions are not shown.
UniProt P09619, whole entry: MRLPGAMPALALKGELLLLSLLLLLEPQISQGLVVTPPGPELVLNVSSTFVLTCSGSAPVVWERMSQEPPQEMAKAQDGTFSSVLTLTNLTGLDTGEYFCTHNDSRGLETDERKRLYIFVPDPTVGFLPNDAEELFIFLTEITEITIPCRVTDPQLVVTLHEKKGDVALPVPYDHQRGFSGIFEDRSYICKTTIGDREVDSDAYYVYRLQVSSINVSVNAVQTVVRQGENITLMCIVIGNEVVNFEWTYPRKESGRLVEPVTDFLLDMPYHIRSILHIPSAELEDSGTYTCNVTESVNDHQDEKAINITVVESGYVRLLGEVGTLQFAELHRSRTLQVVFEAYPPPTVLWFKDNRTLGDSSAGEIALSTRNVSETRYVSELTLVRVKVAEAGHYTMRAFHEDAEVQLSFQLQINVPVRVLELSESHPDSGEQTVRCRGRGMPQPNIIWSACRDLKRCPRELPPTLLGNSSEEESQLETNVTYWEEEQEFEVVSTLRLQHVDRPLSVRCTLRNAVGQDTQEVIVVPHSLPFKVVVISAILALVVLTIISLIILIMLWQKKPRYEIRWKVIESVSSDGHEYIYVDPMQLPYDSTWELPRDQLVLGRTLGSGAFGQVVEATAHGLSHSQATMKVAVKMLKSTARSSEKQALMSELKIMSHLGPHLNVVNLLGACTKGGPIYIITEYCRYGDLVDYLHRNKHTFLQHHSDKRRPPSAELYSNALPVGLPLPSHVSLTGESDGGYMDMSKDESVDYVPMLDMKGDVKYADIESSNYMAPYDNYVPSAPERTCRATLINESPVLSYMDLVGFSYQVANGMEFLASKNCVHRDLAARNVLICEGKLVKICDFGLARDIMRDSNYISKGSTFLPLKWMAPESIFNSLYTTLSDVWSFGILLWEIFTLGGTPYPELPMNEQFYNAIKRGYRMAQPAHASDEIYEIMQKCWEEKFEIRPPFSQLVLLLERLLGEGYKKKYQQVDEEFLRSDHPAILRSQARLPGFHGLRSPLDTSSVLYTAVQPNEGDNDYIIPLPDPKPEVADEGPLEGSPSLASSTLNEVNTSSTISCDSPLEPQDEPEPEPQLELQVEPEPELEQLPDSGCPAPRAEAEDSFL

Row | Structure (SMILES) | IC50 [µM]
1 | COc1cc2nc(Cl)nc(N3CCN(C(=O)Nc4ccc(Oc5ccccc5)cc4)CC3)c2cc1OC [4-(2-Chloro-6,7-dimethoxy-quinazolin-4-yl)-piperazine-1-carboxylic acid (4-phenoxy-phenyl)-amide] | > 30
2 | COc1cc2c(N3CCN(C(=O)Nc4ccc(Oc5ccccc5)cc4)CC3)ncnc2c(OC)c1OC [4-(6,7,8-Trimethoxy-quinazolin-4-yl)-piperazine-1-carboxylic acid (4-phenoxy-phenyl)-amide] | > 30
3 | COc1cc2nc(C)nc(N3CCN(C(=O)Nc4ccc(Oc5ccccc5)cc4)CC3)c2cc1OC [4-(6,7-Dimethoxy-2-methyl-quinazolin-4-yl)-piperazine-1-carboxylic acid (4-phenoxy-phenyl)-amide] | > 30
4 | COc1cc2nc(N3CCOCC3)nc(N3CCN(C(=O)Nc4ccc(Oc5ccccc5)cc4)CC3)c2cc1OC [4-(6,7-Dimethoxy-2-morpholin-4-yl-quinazolin-4-yl)-piperazine-1-carboxylic acid (4-phenoxy-phenyl)-amide] | > 30
5 | COc1ccc2c(N3CCN(C(=O)Nc4ccc(Oc5ccccc5)cc4)CC3)ncnc2c1OC [4-(7,8-Dimethoxy-quinazolin-4-yl)-piperazine-1-carboxylic acid (4-phenoxy-phenyl)-amide] | > 30
6 | CCNc1cc2ncnc(N3CCN(C(=S)NCc4ccccc4)CC3)c2cc1[N+](=O)[O-] [4-(7-Ethylamino-6-nitro-quinazolin-4-yl)-piperazine-1-carbothioic acid benzylamide] | > 30
7 | S=C(NCc1ccccc1)N1CCN(c2ncnc3ccccc23)CC1 [4-Quinazolin-4-yl-piperazine-1-carbothioic acid benzylamide] | > 30

Reference: BindingDB's records for doi:10.1016/s0960-894x(03)00634-6 (Kyowa Hakko Kogyo, 2003)
